Data as given in patent US5747535A, “Selective thrombin inhibitors” (priority 1995, dated 1998).

Tested on: trypsin/thrombin
Conditions: for Selectivity (trypsin/thrombin): Table 1
Method: To identify the selectivity for thrombin over trypsin of the compound of the present invention, the inhibitory activity for trypsin of the compound of formula (I) is measured as Ki value according to the same method as the above method for determination of thrombin inhibitory activity, and then the ratio of the activity for trypsin to the activity for thrombin is calculated. In this case, the procedure for determination of inhibitory activity for trypsin is substantially identical to that for thrombin, except that N-benzoyl-Val-Gly-Arg para-nitroanilide hydrochloride is used as the substrate.

CNC(=N)c1ccc(C[C@H](NS(=O)(=O)c2ccc3ccccc3c2)C(=O)N(C)C2CCCC2)cc1 [Example 7, (S)-N-cyclopentyl-N-methyl-3-[4-(methylamidino)phenyl]-2-(2-naphthylsulfonylamino)propionamide]
selectivity for thrombin against trypsin: ~26304 times
Selectivity (trypsin/thrombin): 26304

COc1cccc2c(S(=O)(=O)N[C@@H](Cc3ccc(C(=N)NN)cc3)C(=O)N(C)C3CCCC3)cccc12 [Example 19, (S)-3-[4-(amidrazono)-phenyl]-N-cyclopentyl-N-methyl-2-(5-methoxy-naphthalene-1-sulfonylamino)-propionamide]
Selectivity (trypsin/thrombin): 990

COc1cc2ccc(S(=O)(=O)N[C@@H](Cc3ccc(C(=N)NN)cc3)C(=O)N(C)C3CCCC3)cc2cc1OC [Example 20, (S)-3-[4-(amidrazono)-phenyl]-N-cyclopentyl-N-methyl-2-(6,7-dimethoxy-naphthalene-2-sulfonylamino)-propionamide]
Selectivity (trypsin/thrombin): 106

CN(C(=O)[C@H](Cc1ccc(C(=N)NN)cc1)NC(=O)COc1cccc2ccccc12)C1CCCC1 [Example 23, (S)-3-[4-(amidrazono)-phenyl]-N-cyclopentyl-N-methyl-2-[2-(naphthalen-1-yl-oxy)acetylamino]-propionamide]
Selectivity (trypsin/thrombin): 8
